Test results: article PMC11726670, “Impact of Linker Composition on VHL PROTAC Cell Permeability” (Journal of Medicinal Chemistry, 2024)
Like-named read-outs stand apart in the source and are kept apart here.

Chains of the proteins cited; added tags and fusions are not shown.
UniProt P40337, whole entry: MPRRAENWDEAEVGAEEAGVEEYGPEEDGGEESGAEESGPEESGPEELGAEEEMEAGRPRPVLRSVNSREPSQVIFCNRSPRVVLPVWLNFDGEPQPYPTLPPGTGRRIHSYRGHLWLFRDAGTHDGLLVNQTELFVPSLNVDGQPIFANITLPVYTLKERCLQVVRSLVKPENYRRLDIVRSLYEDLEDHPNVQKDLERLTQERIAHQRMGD

Tests used:
VHL = VHL (Homo sapiens, UniProt P40337); assay: cell-based VHL binding assay (NanoBRET, live mode)
VHL (VBC complex) = VHL (VBC complex) (Homo sapiens, UniProt P40337); settings: read-out: VHL (in vitro) IC50; biochemical assay; mean ± SEM, three repeats

Work on `Cc1ncsc1-c1ccc(CNC(=O)[C@@H]2C[C@@H](O)CN2C(=O)[C@@H](NC(=O)COCCOCCNC(=O)COc2cnc3c(C4CCN(C(=O)c5ccc(OC(F)(F)F)cc5)CC4)ncnc3c2)C(C)(C)C)cc1` [PROTAC 9] yielded an IC50 (VHL; live cells overexpressing NanoLuc-VHL, mean ± SEM, six repeats, read-out: VHL (in cellulo) IC50) of 7.52 ± 0.77 µM, an IC50 (VHL; supplement, N = 6, read-out: VHL (cell), IC50 mean) of 7.52 µM and an IC50 (VHL (VBC complex)) of 0.313 ± 0.0033 µM.
